Measurements from patent publication US20040115734A1 (VLAAMS INTERUNIVERSITAIR INSTITUUT VOOR BIOTECHNOLOGIE VZW, published 2004).

Target: T1, GST alone (UniProt P08515 = GST)
T1 construct: Negative control, immobilized on glutathione beads; also called GST-beads
Assay: GST pull-down of [35S]-labeled C-terminal APP-stubs expressed in neurons; data not shown

binding result: no binding
B1: APP-C83 (other, UniProt P05067 688-770, looked up)
chain: LVFFAEDVGSNKGAIIGLMVGGVVIATVIVITLVMLKKKQYTSIHHGVVEVDAAVTPEERHLSKMQQNGYENPTYKFFEQMQN
notes: domain: α-cleaved C-terminal fragment (APP-C83); The methods name the vector pSFV-APPC87; also called α-cleaved stub
